Test results: PMC10953408

The chains behind the UniProt entries cited, without tags or fusion partners. Where a name states a change or a piece, a line headed by the entry shows the natural chain unless it says otherwise.
UniProt Q5VWK5: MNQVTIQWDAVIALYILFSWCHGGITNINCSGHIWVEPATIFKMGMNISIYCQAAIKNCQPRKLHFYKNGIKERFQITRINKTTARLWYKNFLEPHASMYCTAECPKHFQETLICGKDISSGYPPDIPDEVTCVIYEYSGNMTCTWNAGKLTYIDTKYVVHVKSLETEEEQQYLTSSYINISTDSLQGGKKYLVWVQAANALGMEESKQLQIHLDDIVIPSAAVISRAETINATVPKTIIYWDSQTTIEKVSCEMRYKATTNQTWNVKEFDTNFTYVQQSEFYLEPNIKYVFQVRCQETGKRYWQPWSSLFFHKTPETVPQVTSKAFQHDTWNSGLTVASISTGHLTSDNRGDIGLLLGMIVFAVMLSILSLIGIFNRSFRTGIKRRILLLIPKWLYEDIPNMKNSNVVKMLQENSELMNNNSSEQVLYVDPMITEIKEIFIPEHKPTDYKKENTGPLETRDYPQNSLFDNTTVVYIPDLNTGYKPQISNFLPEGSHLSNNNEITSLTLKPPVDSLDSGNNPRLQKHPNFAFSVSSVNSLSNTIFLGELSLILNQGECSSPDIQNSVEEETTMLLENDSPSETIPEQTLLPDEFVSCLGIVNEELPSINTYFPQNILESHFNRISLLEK

Molecular target: HiBit‐IL23R (UniProt Q5VWK5)
Assay: split reporter (BiFC, NanoBiT); complementary NanoBiT-tagged receptor constructs co-expressed in HEK293T cells; luminescence of living cells in HBSS with 1 mg/ml BSA after furimazine, plate reader; with or without 10 nM IL-23, with or without co-expressed untagged IL12Rβ1

fold reduction of the luminescence of HiBit-IL23R with LgBit-IL23R on co-expression of IL12Rβ1: 6.73 fold
Substance: IL12Rβ1 (from UniProt P42701 24-662) (receptor)
